Reference: ChEMBL document CHEMBL3576845, “Discovery of Novel Multiacting Topoisomerase I/II and Histone Deacetylase Inhibitors” (ACS Med Chem Lett, 2015)

Molecular target: T1, Histone deacetylase 8 (Homo sapiens, UniProt Q9BY41)
T1 sequence (Q9BY41 whole entry): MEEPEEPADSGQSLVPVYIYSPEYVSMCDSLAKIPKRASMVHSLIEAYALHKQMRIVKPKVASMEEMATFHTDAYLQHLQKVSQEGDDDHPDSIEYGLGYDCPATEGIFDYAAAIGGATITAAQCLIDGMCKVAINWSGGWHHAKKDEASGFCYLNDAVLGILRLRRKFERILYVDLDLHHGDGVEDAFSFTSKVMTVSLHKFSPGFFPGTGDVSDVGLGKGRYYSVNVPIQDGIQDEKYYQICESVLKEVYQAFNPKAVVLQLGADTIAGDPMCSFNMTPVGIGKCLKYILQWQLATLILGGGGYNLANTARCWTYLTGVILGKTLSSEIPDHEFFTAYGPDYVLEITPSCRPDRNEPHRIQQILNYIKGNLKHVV
Assay: Inhibition of recombinant C-terminal His-tagged full length human HDAC8 expressed in baculovirus infected insect Sf9 cells using fluorogenic HDAC class 2a substrate after 30 mins by fluorescence assay

IC50: 8.8 µM
Structure (SMILES): O=C(CCCCCCC(=O)Nc1ccccc1)NO [VORINOSTAT]
